Data published in patent publication US10696678B2, “Kinase inhibitor, and preparing method and pharmaceutical use thereof” (GAN & LEE PHARMACEUTICALS, priority 2015, dated 2020).
pIC50: −log10 of the molar value.

Sequences of proteins named here, by UniProt entry; tags and fusion partners are left off. A change or cut given only in a name is not applied to a line headed by its entry.
UniProt P11802: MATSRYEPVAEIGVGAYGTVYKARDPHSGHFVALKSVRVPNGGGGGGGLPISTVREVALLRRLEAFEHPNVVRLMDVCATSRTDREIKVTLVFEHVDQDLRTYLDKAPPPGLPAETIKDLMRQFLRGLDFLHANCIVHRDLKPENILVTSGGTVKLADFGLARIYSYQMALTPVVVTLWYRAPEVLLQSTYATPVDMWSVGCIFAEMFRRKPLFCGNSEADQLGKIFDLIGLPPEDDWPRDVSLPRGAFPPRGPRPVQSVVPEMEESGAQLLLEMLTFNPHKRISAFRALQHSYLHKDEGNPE
UniProt Q00534, whole entry: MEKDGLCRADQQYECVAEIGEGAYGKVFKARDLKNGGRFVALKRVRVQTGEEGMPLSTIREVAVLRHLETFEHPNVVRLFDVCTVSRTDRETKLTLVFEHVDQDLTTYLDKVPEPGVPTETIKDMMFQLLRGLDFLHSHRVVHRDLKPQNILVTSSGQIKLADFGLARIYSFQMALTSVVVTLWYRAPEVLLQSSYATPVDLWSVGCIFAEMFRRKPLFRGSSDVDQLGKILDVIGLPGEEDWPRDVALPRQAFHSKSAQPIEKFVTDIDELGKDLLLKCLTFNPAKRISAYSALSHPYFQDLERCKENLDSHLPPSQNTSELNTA

Assays:
[1] = test system: human breast cancer cell line MDB-MA-231; assay: Proliferation inhibition assay on human breast cancer cell line MDA-MB-231 (DAPI staining, In Cell Analyzer); assay type: cell-based; settings: MDA-MB-231, 72 h, read-out: IC50 for inhibition of proliferation of human breast cancer cell line MDB-MA-231
CDK4/D3 = CDK4/D3 (Homo sapiens (Human), UniProt P11802); assay: CDKs inhibition assay (ADP-Glo Kinase Assay), CDK4
CDK6/D3 = CDK6/D3 (Homo sapiens (Human), UniProt Q00534); assay: CDKs inhibition assay (ADP-Glo Kinase Assay), CDK6

Cc1nc(Nc2ncc(F)c(-c3cc(F)c4nc5n(c4c3)C(C)CC5)n2)ccc1N1CCN(C)CC1 (stereo not shown) [Example 41, 5-Fluoro-4-(5-fluoro-1-methyl-2,3-dihydro-1H-benzo[d]pyrrolo[1,2-a]imidazol-7-yl)-N-(6-methyl-5-(4-methylpiperazin-1-yl)pyridin-2-yl)pyrimidin-2-amine]
pIC50 [1]: 6.26

CC1CCc2nc3c(F)cc(-c4nc(Nc5ccc(N6CCNCC6)cn5)ncc4F)cc3n21 (stereo not shown) [Example 59, 5-Fluoro-4-(5-fluoro-1-methyl-2,3-dihydro-1H-benzo[d]pyrrolo[1,2-a]imidazol-7-yl)-N-(5-(piperazin-1-yl)pyridin-2-yl)pyrimidin-2-amine]
pIC50 [1]: 5.88

CC1(C)CCc2nc3ccc(-c4nc(Nc5ccc(N6CCNCC6)cn5)ncc4F)cc3n21 [Example 25, 4-(1,1-Dimethyl-2,3-dihydro-1H-benzo[d]pyrrolo[1,2-a]imidazol-7-yl)-5-fluoro-N-(5-(piperazin-1-yl)pyridin-2-yl)pyrimidin-2-amine]
pIC50 [1]: 6.84

Fc1cnc(Nc2ccc(N3CCNCC3)cn2)nc1-c1cc(F)c2nc3n(c2c1)CCCCC3 [Example 17, 5-Fluoro-4-(4-fluoro-7,8,9,10-tetrahydro-6H-benzo[4,5]imidazo[1,2-a]azepan-2-yl)-N-(5-(piperazin-1-yl)pyridin-2-yl)pyrimidin-2-amine]
pIC50 [1]: 6.26 | pIC50 (CDK4/D3): 6.63 | pIC50 (CDK6/D3): 8.72

CC1CN(c2ccc(Nc3ncc(F)c(-c4cc(F)c5nc6n(c5c4)C(C)CC6)n3)nc2)CCN1 (stereo not shown) [Example 53, 5-Fluoro-4-(5-fluoro-1-methyl-2,3-dihydro-1H-benzo[d]pyrrolo[1,2-a]imidazol-7-yl)-N-(5-(3-3-methylpiperazin-1-yl)pyridin-2-yl)pyrimidin-2-amine]
pIC50 [1]: 6.22

CC1(C)Cc2nc3c(F)cc(-c4nc(Nc5ccc(N6CCNCC6)cn5)ncc4F)cc3n2C1 [Example 55, 5-Fluoro-4-(5-fluoro-2,2-dimethyl-2,3-dihydro-1H-benzo[d]pyrrolo[1,2-a]imidazol-7-yl)-N-(5-(piperazin-1-yl)pyridin-2-yl)pyrimidin-2-amine]
pIC50 [1]: 6.42 | pIC50 (CDK4/D3): 8.40 | pIC50 (CDK6/D3): 7.73

CC1CCc2nc3c(F)cc(-c4ccnc(Nc5ccc(N6CCNCC6)cn5)n4)cc3n21 (stereo not shown) [Example 72, 4-(5-Fluoro-1-methyl-2,3-dihydro-1H-benzo[d]pyrrolo[1,2-a]imidazol-7-yl)-N-(5-(piperazin-1-yl)pyridin-2-yl)pyrimidin-2-amine]
pIC50 [1]: 6.09 | pIC50 (CDK4/D3): 7.80 | pIC50 (CDK6/D3): 8.00
